# Test results published in patent US9650358B2 (priority 2013, dated 2017).
# The chains behind the UniProt entries cited, without tags or fusion partners.
# UniProt P50750, whole entry: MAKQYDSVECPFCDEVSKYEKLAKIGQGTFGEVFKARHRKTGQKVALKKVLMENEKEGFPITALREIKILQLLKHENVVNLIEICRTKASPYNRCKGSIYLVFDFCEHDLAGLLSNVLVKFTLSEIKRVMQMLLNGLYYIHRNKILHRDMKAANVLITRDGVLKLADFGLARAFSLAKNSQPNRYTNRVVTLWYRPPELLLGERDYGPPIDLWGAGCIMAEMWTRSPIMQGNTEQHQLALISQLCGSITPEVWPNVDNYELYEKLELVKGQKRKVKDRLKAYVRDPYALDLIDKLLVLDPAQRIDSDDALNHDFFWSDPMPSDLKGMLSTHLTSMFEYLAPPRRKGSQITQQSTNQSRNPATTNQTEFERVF
# Molecular target: CDK9/Cyclin T1 (Homo sapiens (Human), UniProt P50750)
# Assay: biochemical
compound,measurement,value
"O=C(Nc1cc(-c2ccc3ncn(Cc4cncc(F)c4)c3c2)c(Cl)cn1)[C@@H]1CCCNC1 [Example 131, (3R)—N-(5-chloro-4-{1-[(5-fluoropyridin-3-yl)methyl]-1H-benzimidazol-6-yl}pyridin-2-yl)piperidine-3-carboxamide]",IC50,40 nM
